From ChEMBL document CHEMBL3871286, “Tetrahydroquinoline-based tricyclic amines as potent and selective agonists of the 5-HT2C receptor” (Bioorg Med Chem Lett, 2016) come the findings set out here.

The chains behind the UniProt entries cited, without tags or fusion partners. Where a name states a change or a piece, a line headed by the entry shows the natural chain unless it says otherwise.
UniProt P41595, whole entry: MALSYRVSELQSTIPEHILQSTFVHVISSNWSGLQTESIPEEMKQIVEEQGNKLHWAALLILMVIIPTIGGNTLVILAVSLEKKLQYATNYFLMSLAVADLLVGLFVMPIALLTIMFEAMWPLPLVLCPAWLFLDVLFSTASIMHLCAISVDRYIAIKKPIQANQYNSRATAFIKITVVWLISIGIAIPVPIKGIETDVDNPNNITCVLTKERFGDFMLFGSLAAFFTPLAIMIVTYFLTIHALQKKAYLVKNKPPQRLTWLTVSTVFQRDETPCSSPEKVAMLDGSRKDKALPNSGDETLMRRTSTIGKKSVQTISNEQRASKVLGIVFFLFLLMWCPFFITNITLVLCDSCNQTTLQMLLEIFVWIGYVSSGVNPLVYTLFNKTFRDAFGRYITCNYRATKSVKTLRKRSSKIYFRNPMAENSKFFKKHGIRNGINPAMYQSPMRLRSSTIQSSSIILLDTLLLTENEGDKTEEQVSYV
UniProt P28223, whole entry: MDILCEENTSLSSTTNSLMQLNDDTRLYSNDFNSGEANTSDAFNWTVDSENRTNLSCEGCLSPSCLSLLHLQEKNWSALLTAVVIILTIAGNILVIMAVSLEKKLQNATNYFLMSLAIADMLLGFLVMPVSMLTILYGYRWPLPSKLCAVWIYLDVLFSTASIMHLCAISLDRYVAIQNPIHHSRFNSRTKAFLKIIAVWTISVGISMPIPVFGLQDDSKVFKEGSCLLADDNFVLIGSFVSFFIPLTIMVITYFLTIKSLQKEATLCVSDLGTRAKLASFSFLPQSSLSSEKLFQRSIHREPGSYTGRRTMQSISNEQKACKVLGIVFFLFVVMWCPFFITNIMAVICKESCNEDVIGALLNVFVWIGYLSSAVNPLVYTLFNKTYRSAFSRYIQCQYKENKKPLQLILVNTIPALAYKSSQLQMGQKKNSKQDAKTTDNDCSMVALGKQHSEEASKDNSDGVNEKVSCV
UniProt P28335: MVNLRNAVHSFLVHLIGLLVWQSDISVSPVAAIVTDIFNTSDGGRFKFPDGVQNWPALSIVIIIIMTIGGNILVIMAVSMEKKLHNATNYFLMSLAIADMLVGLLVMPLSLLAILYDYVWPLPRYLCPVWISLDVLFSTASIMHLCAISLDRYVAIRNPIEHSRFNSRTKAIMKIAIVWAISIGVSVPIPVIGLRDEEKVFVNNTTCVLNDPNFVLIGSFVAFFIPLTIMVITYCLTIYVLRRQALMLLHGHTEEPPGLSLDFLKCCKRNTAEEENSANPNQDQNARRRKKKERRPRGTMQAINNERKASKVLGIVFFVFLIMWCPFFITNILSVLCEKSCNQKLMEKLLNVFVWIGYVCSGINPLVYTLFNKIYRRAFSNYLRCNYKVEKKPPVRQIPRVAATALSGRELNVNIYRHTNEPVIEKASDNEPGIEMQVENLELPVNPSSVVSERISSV

Assay [1] deals with 5-hydroxytryptamine receptor 2B (Homo sapiens, UniProt P41595). Briefly: Displacement of [125I]DOI from recombinant human 5-HT2B receptor expressed in HEK293 cell membranes after 1 hr by scintillation counting.
Assay [2] has as its target T1, 5-hydroxytryptamine receptor 2A (Homo sapiens, UniProt P28223). Briefly: Agonist activity at 5-HT2A receptor (unknown origin) expressed in HEK293 cells assessed as [3H]inositol phosphate accumulation after 2 hrs by scintillation counting. Type of assay: cell-based.
The target in assay [3] is T1, 5-hydroxytryptamine receptor 2A. The assay is described as follows: Displacement of [125I]DOI from recombinant human 5-HT2A receptor expressed in HEK293 cell membranes after 1 hr by scintillation counting. (Displacement assays read how much labelled ligand stays bound in the presence of the test substance.)
In assay [4] the target is T2, 5-hydroxytryptamine receptor 2C (Homo sapiens, UniProt P28335). The assay is described as follows: Displacement of [125I]DOI from recombinant human 5-HT2C receptor expressed in HEK293 cell membranes after 1 hr by scintillation counting.
The target of assay [5] is T2, 5-hydroxytryptamine receptor 2C. The assay is described as follows: Agonist activity at unedited 5-HT2C receptor (unknown origin) expressed in HEK293 cells assessed as [3H]inositol phosphate accumulation after 2 hrs by scintillation counting. The class given is functional, cell-based.

pEC50, pKi: −log10 of the molar value.

In general, pKi refers to −log10 of the Ki, conventionally taken in molar units. The pEC50 is the EC50 on a negative log10 scale, so that one unit is a factor of ten. For `Clc1cccc(N2CCNCC2)c1` [CHLOROPHENYLPIPERAZINE], the values for the pKi in assay [1], in assay [3] and in assay [4] were 8.00, 7.60 and 8.10, respectively. For the same compound, the figures for the pEC50 in assay [2] and in assay [5] were 6.60 and 7.90, respectively.
